For 2 compounds, IC50 results are on record in ChEMBL document CHEMBL4184143, “Structure-Based Discovery of 4-(6-Methoxy-2-methyl-4-(quinolin-4-yl)-9H-pyrimido[4,5-b]indol-7-yl)-3,5-dimethylisoxazole (CD161) as a Potent and Orally Bioavailable BET Bromodomain Inhibitor” (J Med Chem, 2017).

In general, IC50 refers to the midpoint of a concentration-inhibition curve.

The subject of assay [1] is MOLM-13. Nature of the assay: Growth inhibition of human MOLM13 cells after 4 days by WST-8 assay. The assay is classed as functional, cell-based. The note with it: MOLM-13, 96 h. For orientation: Tetrazolium assays rely on reduction of a dye to a coloured formazan, in cell work by metabolically active cells.
The test system of assay [2] is MDA-MB-436. Nature of the assay: Cytotoxicity against human MDA-MB-436 cells assessed as cell growth inhibition after 4 days by WST-8 assay. It is filed as functional, cell-based. Particulars: MDA-MB-436, 96 h.
The subject of assay [3] is BT-474. Nature of the assay: Cytotoxicity against human BT474 cells assessed as cell growth inhibition after 4 days by WST-8 assay. It is filed as functional, cell-based. Particulars: BT-474, 96 h.
In assay [4] the test system is BT-549. As to the kind of experiment: Cytotoxicity against human BT549 cells assessed as cell growth inhibition after 4 days by WST-8 assay. It is filed as functional, cell-based. Particulars: BT-549, 96 h.
In assay [5] the test system is MDA-MB-231. As to the kind of experiment: Cytotoxicity against human MDA-MB-231 cells assessed as cell growth inhibition after 4 days by WST-8 assay. The assay is classed as functional, cell-based. The note with it: MDA-MB-231, 96 h.
Assay [6] concerns BT-20. As to the kind of experiment: Cytotoxicity against human BT20 cells assessed as cell growth inhibition after 4 days by WST-8 assay. It is filed as functional, cell-based. Particulars: BT-20, 96 h.
For assay [7], the system named is MDA-MB-468. As to the kind of experiment: Cytotoxicity against human MDA-MB-468 cells assessed as cell growth inhibition after 4 days by WST-8 assay. Particulars: MDA-MB-468, 96 h. It is filed as functional, cell-based.
Assay [8] deals with T1, Serine/threonine-protein kinase PLK4 (Homo sapiens, UniProt O00444).
T1 sequence (O00444 whole entry): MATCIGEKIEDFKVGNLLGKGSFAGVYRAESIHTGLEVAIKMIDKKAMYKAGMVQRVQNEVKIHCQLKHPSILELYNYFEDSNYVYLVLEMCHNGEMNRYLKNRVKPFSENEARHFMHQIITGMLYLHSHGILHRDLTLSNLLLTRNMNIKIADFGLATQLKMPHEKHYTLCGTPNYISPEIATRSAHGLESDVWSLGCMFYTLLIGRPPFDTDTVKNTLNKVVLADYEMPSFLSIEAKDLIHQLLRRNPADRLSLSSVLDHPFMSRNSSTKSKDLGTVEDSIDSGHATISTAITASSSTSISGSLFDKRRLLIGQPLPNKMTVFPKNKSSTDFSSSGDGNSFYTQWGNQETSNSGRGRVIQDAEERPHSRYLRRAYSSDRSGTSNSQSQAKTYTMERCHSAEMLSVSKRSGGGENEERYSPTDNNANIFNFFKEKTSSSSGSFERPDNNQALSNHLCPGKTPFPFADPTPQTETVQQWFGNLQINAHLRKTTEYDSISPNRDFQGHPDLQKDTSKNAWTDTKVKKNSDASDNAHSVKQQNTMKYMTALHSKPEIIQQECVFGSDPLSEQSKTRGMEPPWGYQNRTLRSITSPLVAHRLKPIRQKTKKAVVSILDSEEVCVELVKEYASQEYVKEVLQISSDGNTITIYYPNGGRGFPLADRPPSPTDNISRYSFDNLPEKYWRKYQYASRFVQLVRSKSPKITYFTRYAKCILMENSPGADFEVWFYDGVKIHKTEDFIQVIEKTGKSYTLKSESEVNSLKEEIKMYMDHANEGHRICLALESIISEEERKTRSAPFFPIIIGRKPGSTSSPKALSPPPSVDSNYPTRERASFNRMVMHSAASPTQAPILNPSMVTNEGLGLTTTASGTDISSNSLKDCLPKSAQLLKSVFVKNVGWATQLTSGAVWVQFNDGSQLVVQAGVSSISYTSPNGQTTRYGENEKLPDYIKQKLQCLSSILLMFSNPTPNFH
Nature of the assay: Inhibition of human PLK4 (M1 to S273 residues) expressed in mammalian expression system.

The subject of assay [9] is MDA-MB-157. As to the kind of experiment: Cytotoxicity against human MDA-MB-157 cells assessed as cell growth inhibition after 4 days by WST-8 assay. It is filed as functional, cell-based. Particulars: MDA-MB-157, 96 h.
Assay [10] relates to HCC38. As to the kind of experiment: Cytotoxicity against human HCC38 cells assessed as cell growth inhibition after 4 days by WST-8 assay. The assay is classed as functional, cell-based. The note with it: HCC38, 96 h.
In assay [11] the test system is MDA-MB-453. Nature of the assay: Cytotoxicity against human MDA-MB-453 cells assessed as cell growth inhibition after 4 days by WST-8 assay. The assay is classed as functional, cell-based. The note with it: MDA-MB-453, 96 h.
Assay [12] has as its system HCC1395. As to the kind of experiment: Cytotoxicity against human HCC1395 cells assessed as cell growth inhibition after 4 days by WST-8 assay. Particulars: HCC1395, 96 h. The assay is classed as functional, cell-based.
Assay [13] concerns SUM149PT. Nature of the assay: Cytotoxicity against human SUM149PT cells assessed as cell growth inhibition after 4 days by WST-8 assay. The note with it: 96 h. It is filed as functional, cell-based.
The subject of assay [14] is MDA-MB-361. As to the kind of experiment: Cytotoxicity against human MDA-MB-361 cells assessed as cell growth inhibition after 4 days by WST-8 assay. The assay is classed as functional, cell-based. The note with it: MDA-MB-361, 96 h.
For assay [15], the system named is MV4-11. As to the kind of experiment: Growth inhibition of human MV4-11 cells after 4 days by WST-8 assay. The assay is classed as functional, cell-based. Particulars: MV4-11, 96 h.
The nature of assay [16]: Cytotoxicity against human HCC1428 cells assessed as cell growth inhibition after 4 days by WST-8 assay. It is filed as functional, cell-based. Particulars: HCC1428, 96 h.

Consider `COc1cc2c(cc1-c1c(C)noc1C)[nH]c1ccnc(-c3c(C4CC4)n[nH]c3C)c12`, for which the 50% inhibitory concentration (IC50) in [1] was determined as 0.066 µM.
Consider `COc1cc2c(cc1-c1c(C)noc1C)[nH]c1nc(C)nc(-c3ccnc4ccccc34)c12`, for which the IC50 in [2] was 1.7 µM; in assay [3] it was 0.434 µM; in assay [4], 0.41 µM; in [5] it was 0.244 µM; in [6], 1.71 µM; in assay [7] it was 1.02 µM. Besides, the IC50 in assay [1] came out at 0.053 µM; in assay [8], 3.9 µM; in assay [9] it was 0.039 µM; in [10], 0.285 µM; in assay [11] it was 0.188 µM; in [12], 1.23 µM. For the same compound, the half-maximal inhibitory concentration (IC50) in assay [13] came out at 0.601 µM; in assay [14] it was 0.189 µM; in assay [15], 0.026 µM; in assay [16], 0.319 µM.
